Target: beta actin; beta cytoskeletal actin (UniProt P60709 2-375)
Test: co-immunoprecipitation with Flag-UCH-L1 from transfected HEK293T cells, 2D-PAGE, MALDI-TOF MS (spot 9)
Protocol: For the analysis using MALDI-TOF mass spectrometry, the proteins were separated on 2D-PAGE and then stained with coomassie dye. After being identified, the proteins (spots) on gels were excised and stored in eppendorf tubes. The excised gels were homogenized in 30% methanol (1 mL) and then incubated at 37° C. for 5 min. These gels were destained three times with 100 μL of 25 mM ammonium bicarbonate (NH₄HCO₃)/50% acetonitrile solution for 10 min, dehydrated with 100% acetonitrile, and completely dried using Speed Vac vacuum centrifuge. The trypsin (10 μL, 10 ng/mL) solution including 25 mM NH₄HCO₃ was added to the dried gels and reacted with them at room temperature for 5-10 min and successively at 4° C. for 30 min. Next, 20 μL of 25 mM NH₄HCO₃ was added thereto. These gels treated with trypsin and 25 mM NH₄HCO₃ (20 μL) were incubated at 37° C. for 12-16 h additionally. Here, 30 μL of 60% acetonitrile/0.1% TFA (1:1 v/v) solution was added. These gels were incubated at 37° C. for 10 min. […]
To examine the interacting protein profiles of various UCH-L1 isoforms respectively according to oxidative stress, HEK293 cells was treated with H₂O₂. The H₂O₂ treated cell lysates were immunoprecipitated and analyzed by 2D-PAGE (FIG. 8B) and MALDI-TOF MS in comparison with them of the control cells.

B1: flag-tagged UCH-L1 (Ubiquitin C-terminal hydrolase-L1) expressed from pFlag-CMV-2-UCH-L1 (enzyme)
chain: MQLKPMEINPEMLNKVLSRLGVAGQWRFVDVLGLEEESLGSVPAPACALLLLFPLTAQHENFRKKQIEELKGQEVSPKVYFMKQTIGNSCGTIGLIHAVANNQDKLGFEDGSVLKQFLSETEKMSPEDRAKCFEKNEAIQAAHDAVAQEGQCRVDDKVNFHFILFNNVDGHLYELDGRMPFPVNHGASSEDTLLKDAAKVCREFTEREQGEVRFSAVALC
notes: Full-length UCH-L1 with a Flag tag, transiently expressed inside HEK293T (immunoprecipitation) or H358 cells (confocal microscopy); also called PGP9.5; not shown: Flag tag from the pFlag-CMV-2 vector (sigma)
binding result: binds

Source: US20090208508A1 (SK, published 2009)
